Assay results from ChEMBL document CHEMBL4196235, “SAR of 4-Alkoxybenzoic Acid Inhibitors of the Trypanosome Alternative Oxidase” (ACS Med Chem Lett, 2018).

Test system: HEK-293T
Assay: Cytotoxicity against HEK293T cells after 30 hrs by resazurin dye based fluorescence assay
Type: cell-based
Settings: human

Question: For `O=[As]c1ccccc1` (stereo unspecified), which CC50 is on record?
Answer: Its CC50 is 1.1 µM.
